Measurements as given in patent US10239884B2, “Coelenterazine compounds and uses thereof” (KEIO UNIVERSITY, priority 2017, dated 2019).

Amino acid sequences for entries named in this document (tags omitted).
UniProt P27652, whole entry A55T/C124A/S130A/K136R/A143M/M185V/M253L/S287L: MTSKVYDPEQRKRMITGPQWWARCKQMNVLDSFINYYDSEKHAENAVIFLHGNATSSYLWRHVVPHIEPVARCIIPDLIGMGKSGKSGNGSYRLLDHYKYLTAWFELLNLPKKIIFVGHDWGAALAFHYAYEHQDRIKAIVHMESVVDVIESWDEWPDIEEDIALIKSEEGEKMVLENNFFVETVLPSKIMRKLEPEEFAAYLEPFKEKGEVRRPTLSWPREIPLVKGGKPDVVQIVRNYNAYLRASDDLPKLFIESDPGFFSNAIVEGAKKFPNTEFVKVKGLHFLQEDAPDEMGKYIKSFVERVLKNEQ
UniProt P27652, whole entry A55T/A123S/C124A/S130A/K136R/A143M/D154M/E155G/D162E/I163L/M185L/M253L/S287L: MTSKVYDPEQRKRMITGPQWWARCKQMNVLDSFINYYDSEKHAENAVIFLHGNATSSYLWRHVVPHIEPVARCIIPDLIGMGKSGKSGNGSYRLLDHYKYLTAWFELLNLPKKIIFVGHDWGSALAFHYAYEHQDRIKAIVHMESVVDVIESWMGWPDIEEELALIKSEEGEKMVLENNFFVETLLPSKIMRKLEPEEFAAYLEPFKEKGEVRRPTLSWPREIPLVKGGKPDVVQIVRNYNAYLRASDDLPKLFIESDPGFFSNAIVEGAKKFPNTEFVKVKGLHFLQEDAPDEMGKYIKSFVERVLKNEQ

Key:
Assay type in all cases: biochemical
RLuc8 [1] = target: T1, RLuc8 (Renilla reniformis, UniProt P27652, A143M/A55T/C124A/K136R/M185V/M253L/S130A/S287L); conditions: bioluminescence spectrum, ATTO LumiFL
T1 construct: expressed in transfected cells; host or cells: COST cells (so in the source)
Procedure: (§1) As in the method for measuring bioluminescence intensity described above, luminescence spectrum was measured according to the protocol of Renilla Luciferase Assay System (Cat. No. E 2810; Promega). The luminescence spectrum was measured using ATTO LumiFL. The maximum luminescence intensities were normalized to be relative values to 1.0 upon determination of the maximum luminescence wavelength.

RLuc8.6-535 [2] = target: T2, RLuc8.6-535 (Renilla reniformis, UniProt P27652, A123S/A143M/A55T/C124A/D154M/D162E/E155G/I163L/K136R/M185L/M253L/S130A/S287L); set-up: expressed in transfected cells; host or cells: COST cells (so in the source); conditions: 2 μM substrate in PBS pH 7.4, cell lysate, maximum intensity over 1 second, relative value
Excerpt: (§2) The luciferases were respectively expressed in COST cells using an expression vector (pcDNA3.1(+), commercially available from Invitrogen) comprising the sequence encoding native Renilla Luciferase (RLuc) (trade name pGL4.75, commercially available from Promega) or an expression vector (trade name pcDNA3.1(+), commercially available from Invitrogen) comprising the sequence encoding a RLuc derivative RLuc8 or RLuc8.6-535 (Reference: Loening, A. M. et al., Nat. Methods, 2007, 4, 641-643.). The cells were lysed using a Renilla Luciferase Lysis Buffer (E291A, Promega), and the lysate was directly used as an enzyme solution. […] Bioluminescence was measured according to the protocol of Renilla Luciferase Assay System (Cat. No. E 2810; Promega). The luminescent substrate was dissolved in methanol to prepare a 2 mM solution. The solution was diluted to 2 μM with PBS buffer (pH 7.4), and the diluted solution was used as a substrate solution. To 200 μL of the substrate solution, 4 μL of the cell lysate containing RLuc, RLuc 8 or RLuc8.6-535 was added to start the luminescent reaction. The luminescence intensity was measured with a Berthold Lumat LB 9507 for 1 second, and indicated by the maximum luminescence intensity (I). The luminescence intensity of the native CTZ by RLuc8 was set to be 1.0, and the other bioluminescence intensities were normalized to be relative values to that of native CTZ.

RLuc8.6-535 [3] = target: T2, RLuc8.6-535; set-up: expressed in transfected cells; host or cells: COST cells (so in the source); conditions: bioluminescence spectrum, ATTO LumiFL
Procedure: as §1

RLuc8 [4] = target: T1, RLuc8; conditions: 2 μM substrate in PBS pH 7.4, cell lysate, maximum intensity over 1 second, relative value
Excerpt: as §2

SMILES | RLuc8 half-width (nm) (RLuc8 [1]) | RLuc8 maximum luminescence wavelength (nm) (RLuc8 [1]) | RLuc8.6-535 luminescence intensity (%) (RLuc8.6-535 [2]) | RLuc8.6-535 half-width (nm) (RLuc8.6-535 [3]) | RLuc8.6-535 maximum luminescence wavelength (nm) (RLuc8.6-535 [3]) | RLuc8 luminescence intensity (%) (RLuc8 [4])
Cc1ccc(-c2cn3c(=O)c(Cc4ccc(O)cc4)nc-3c(Cc3ccccc3)[nH]2)cc1 [Example 6-Methyl-CTZ] | [44] nm | 415 nm | 41.0% | [51] nm | 413 nm | 2.72%
O=c1c(Cc2ccc(O)cc2)nc2c(Cc3ccccc3)[nH]c(-c3ccc(OCCCCCO)cc3)cn1-2 [6-Alkyl5OH-CTZ] | [70] nm | 403 nm | 22.5% | [66] nm | 406 nm | 3.75%
COCCCOc1ccc(-c2cn3c(=O)c(Cc4ccc(O)cc4)nc-3c(Cc3ccccc3)[nH]2)cc1 [6-Alkyl3OMe-CTZ] | [44] nm | (418) nm | 41.1% | [59] nm | 412 nm | 9.19%
